Measurements taken from patent US7265147B2, “3,6-disubstituted azabicyclo [3.1.0]hexane derivatives useful as muscarinic receptor antagonists” (Ranbaxy Laboratories Limited, priority 2002, dated 2007).

By UniProt entry, the sequences of proteins in these tests, tags left out.
UniProt P08483, whole entry: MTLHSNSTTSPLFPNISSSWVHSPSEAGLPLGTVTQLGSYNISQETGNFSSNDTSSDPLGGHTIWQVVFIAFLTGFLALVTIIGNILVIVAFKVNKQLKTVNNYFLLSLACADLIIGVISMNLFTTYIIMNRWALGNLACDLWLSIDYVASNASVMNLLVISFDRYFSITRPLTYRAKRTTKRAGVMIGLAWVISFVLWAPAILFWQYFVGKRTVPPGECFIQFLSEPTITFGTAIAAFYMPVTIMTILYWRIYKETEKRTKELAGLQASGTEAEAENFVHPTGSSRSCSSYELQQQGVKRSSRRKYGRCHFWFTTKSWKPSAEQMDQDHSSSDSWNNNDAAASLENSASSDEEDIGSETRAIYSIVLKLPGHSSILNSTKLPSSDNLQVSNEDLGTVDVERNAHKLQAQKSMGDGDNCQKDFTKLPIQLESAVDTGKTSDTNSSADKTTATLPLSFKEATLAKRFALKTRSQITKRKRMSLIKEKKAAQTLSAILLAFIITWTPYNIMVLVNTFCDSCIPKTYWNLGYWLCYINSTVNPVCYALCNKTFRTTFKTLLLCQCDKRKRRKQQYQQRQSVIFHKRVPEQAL

Target: M3 muscarinic receptor (Rattus norvegicus, UniProt P08483)
Test: biochemical

Row | SMILES | Ki [nM]
1 | O=C(NCC#CCN1C[C@H]2C[C@H]2C1)C(O)(c1ccccc1)C1CCCCC1 (stereo partly drawn) [Compound No. 9, N-{4-[(1R, 5S)-3-azabicyclo[3.1.0]-hex-3-yl]but-2-ynyl}-2-hydroxy-2-cyclohexyl-2-phenylacetamide] | 2610
2 | O=C(NCC#CCN1C[C@H]2C[C@H]2C1)C(O)(c1ccccc1)c1ccccc1 [Compound No. 11, N-{4-[(1R, 5S)-3-azabicyclo[3.1.0]-hex-3-yl]but-2-ynyl}-2-hydroxy-2,2-diphenylacetamide] | 291
3 | O=C(NCC#CCN1C[C@H]2C[C@H]2C1)C(O)(c1ccc(F)cc1)c1ccc(F)cc1 [Compound No. 12, N-{4-[(1R,5S)-3-azabicyclo[3.1.0]-hex-3-yl]-but-2-ynyl}2-hydroxy-bis(4-florophenyl)acetamide] | 366
